{"sequences": {"note": "Amino acid sequences for entries named in this document (tags omitted). A change or cut given only in a name is not applied to a line headed by its entry.", "UniProt O94956": "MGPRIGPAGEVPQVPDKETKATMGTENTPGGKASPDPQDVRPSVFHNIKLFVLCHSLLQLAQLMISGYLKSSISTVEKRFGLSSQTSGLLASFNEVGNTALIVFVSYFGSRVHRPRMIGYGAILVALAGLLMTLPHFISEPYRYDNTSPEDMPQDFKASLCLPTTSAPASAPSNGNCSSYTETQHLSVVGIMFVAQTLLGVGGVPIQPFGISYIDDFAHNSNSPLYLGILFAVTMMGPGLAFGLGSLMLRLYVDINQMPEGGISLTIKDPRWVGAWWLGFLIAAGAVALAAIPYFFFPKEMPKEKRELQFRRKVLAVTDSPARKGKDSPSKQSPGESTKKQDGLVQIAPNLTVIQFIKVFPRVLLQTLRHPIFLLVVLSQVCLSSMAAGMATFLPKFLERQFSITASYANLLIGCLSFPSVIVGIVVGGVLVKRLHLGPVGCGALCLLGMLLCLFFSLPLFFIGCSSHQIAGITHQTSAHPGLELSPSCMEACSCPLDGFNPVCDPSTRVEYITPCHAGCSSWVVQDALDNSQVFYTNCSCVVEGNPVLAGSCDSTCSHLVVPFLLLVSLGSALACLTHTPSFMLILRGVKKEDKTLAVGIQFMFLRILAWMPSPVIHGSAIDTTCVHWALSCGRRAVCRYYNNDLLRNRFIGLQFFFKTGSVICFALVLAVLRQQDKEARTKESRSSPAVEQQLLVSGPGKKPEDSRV"}, "source": "paper PMC5242521", "about": "“Inhibition of Human Drug Transporter Activities by the Pyrethroid Pesticides Allethrin and Tetramethrin” (PLoS ONE, 2017)", "key": {"OATP2B1": {"biological_target": "OATP2B1 (Homo sapiens, UniProt O94956)", "assay": "OATP2B1 activity: E3S accumulation in HEK-OATP2B1 cells", "details": "pyrethroid 100 μM", "description": "(§1) The effects of pyrethroids on activity of ABC and SLC transporters were determined through measuring cellular accumulation or retention of fluorescent or radiolabeled reference substrates for transporters, in the presence or absence of reference inhibitors, as previously described. The nature of cells and reference substrates and inhibitors used for transport assays are summarized in S3 Table.\n(§2) The nature of substrates and reference inhibitors and the incubation times with substrates, that varied according to the transporter, were selected in agreement with previous studies and are indicated in S3 Table. The total incubation volume with substrates was 200 μL/well. […] An aliquot of cell lysate (5 μL) was then taken for determining cellular protein content by the Bradford method.\n(§3) Intracellular concentrations of reference substrates were initially expressed as fluorescence arbitrary units (for fluorescent dye substrates) or as moles (for radiolabeled substrates) and normalized to cellular protein content, determined by the Bradford method. […]\n(§4) The initial tested concentration of pyrethroids was 100 μM. […] Such concentrations were calculated using GraphPad Prism software (GraphPad Software, La Jolla, CA), through nonlinear regression based on the four parameter logistic function using the following equations: […]"}, "OCT1 [1]": {"biological_target": "T1, OCT1 (Homo sapiens, UniProt O15245)", "T1 sequence (O15245 1-554)": "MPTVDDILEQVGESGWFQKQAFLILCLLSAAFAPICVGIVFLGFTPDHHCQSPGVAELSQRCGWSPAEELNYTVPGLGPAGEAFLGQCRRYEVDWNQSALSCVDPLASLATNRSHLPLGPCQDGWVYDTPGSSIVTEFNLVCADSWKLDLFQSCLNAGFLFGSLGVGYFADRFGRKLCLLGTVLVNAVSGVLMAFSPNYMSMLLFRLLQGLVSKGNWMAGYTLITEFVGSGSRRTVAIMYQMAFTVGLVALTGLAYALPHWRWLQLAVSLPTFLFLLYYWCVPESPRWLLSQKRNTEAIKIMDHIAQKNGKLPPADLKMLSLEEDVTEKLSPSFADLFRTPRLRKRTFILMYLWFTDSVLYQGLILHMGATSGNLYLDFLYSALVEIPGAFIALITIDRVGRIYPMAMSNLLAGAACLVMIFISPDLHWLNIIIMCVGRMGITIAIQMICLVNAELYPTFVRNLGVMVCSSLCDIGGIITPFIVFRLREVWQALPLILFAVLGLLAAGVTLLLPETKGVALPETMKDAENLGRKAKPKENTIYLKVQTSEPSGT", "assay": "Dopamine accumulation in OCT1-transfected HEK293 cells", "format": "cell-based", "details": "pyrethroid 10, 100 or 300 μM; 11 nM dopamine, 5 min", "description": "HEK-MOCK and HEK-OCT1 cells were incubated with transport assay medium containing 11 nM 3,4-[Ring-2,5,6-^3H]-dopamine, in the absence or presence of the reference OCT1 inhibitor verapamil or of pyrethroids for 5 min at 37°C in the transport assay medium described above. After washing twice with PBS, cells were lysed in distilled water and intracellular accumulation of dopamine was finally measured by scintillation counting.\n(A) HEK-OCT1 and HEK-MOCK cells were incubated with 11 nM 3,4-[Ring-2,5,6-^3H]-dopamine in the absence or presence of the reference OCT1 inhibitor verapamil (100 μM) for 5 min at 37°C. Intracellular accumulation of 3,4-[Ring-2,5,6-^3H]-dopamine was then determined by scintillation counting. […] Intracellular accumulation of 3,4-[Ring-2,5,6-^3H]-dopamine was then determined by scintillation counting. Data are expressed as percentages of OCT1-mediated transport of dopamine in control pyrethroid-unexposed cells, determined by subtracting accumulation of dopamine in HEK-MOCK cells from that in HEK-OCT1 cells in the absence of pyrethroids, arbitrarily set at 100% and indicated by a dotted line on the graph."}, "OAT1": {"biological_target": "T2, OAT1 (Homo sapiens, UniProt Q4U2R8)", "T2 construct": "host or cells: HEK293", "T2 sequence (Q4U2R8 1-563)": "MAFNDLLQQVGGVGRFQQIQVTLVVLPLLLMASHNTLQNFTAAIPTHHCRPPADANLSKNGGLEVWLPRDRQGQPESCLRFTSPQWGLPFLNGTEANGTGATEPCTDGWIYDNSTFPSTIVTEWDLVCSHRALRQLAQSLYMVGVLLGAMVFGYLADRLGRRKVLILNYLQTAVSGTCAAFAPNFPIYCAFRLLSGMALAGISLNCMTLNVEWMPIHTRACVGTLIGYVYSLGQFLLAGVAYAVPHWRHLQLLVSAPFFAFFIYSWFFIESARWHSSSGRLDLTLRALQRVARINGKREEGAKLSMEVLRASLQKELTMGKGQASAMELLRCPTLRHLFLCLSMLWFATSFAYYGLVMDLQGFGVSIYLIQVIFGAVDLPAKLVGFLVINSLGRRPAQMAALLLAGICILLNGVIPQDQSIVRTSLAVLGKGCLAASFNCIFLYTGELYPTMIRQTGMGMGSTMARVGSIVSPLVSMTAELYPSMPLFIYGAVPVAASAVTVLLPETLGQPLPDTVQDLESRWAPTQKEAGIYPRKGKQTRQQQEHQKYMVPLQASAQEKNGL", "assay": "OAT1 activity: fluorescein accumulation in HEK-OAT1 cells", "format": "cell-based", "details": "pyrethroid up to 100 μM"}, "OCT1 [2]": {"biological_target": "T1, OCT1", "assay": "OCT1 activity: DAPI accumulation in HEK-OCT1 cells", "details": "pyrethroid 10 μM", "description": "as §1, §2, §3, §4"}, "MATE2-K": {"biological_target": "T3, MATE2-K (Homo sapiens, UniProt Q86VL8)", "T3 construct": "expressed in transfected cells; host or cells: HEK293", "T3 sequence (Q86VL8 1-566 isoform Q86VL8-3)": "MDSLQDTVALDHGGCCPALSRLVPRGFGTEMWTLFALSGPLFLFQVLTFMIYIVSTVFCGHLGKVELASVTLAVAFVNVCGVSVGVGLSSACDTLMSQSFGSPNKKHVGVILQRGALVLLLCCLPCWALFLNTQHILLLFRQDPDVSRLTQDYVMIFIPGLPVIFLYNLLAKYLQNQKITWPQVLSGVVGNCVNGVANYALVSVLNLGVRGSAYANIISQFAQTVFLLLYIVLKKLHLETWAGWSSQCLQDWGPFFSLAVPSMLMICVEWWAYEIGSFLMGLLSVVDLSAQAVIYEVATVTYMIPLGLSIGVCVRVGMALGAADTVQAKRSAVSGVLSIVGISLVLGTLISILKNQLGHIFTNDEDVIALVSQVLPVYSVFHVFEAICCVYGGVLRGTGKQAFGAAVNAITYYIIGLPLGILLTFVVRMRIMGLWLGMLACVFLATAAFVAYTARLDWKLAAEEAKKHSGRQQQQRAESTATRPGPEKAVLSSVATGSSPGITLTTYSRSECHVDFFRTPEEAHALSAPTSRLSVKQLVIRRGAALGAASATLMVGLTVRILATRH", "assay": "MATE2-K activity: TEA accumulation in HEK-MATE2-K cells", "format": "cell-based", "details": "pyrethroid up to 100 μM"}, "OCT1 [3]": {"biological_target": "T1, OCT1", "assay": "Cis-inhibition of OCT1-mediated TEA accumulation in HEK-OCT1 cells", "format": "cell-based", "details": "pyrethroid 100 μM; 29 μM [14C]-TEA, 5 min", "description": "Intracellular accumulation of TEA was then determined by scintillation counting. […] After washing, cells were next re-incubated with 29 μM [1-^14C]-TEA for 5 min at 37°C. Intracellular accumulation of [1-^14C]-TEA was then determined by scintillation counting."}}, "data": [{"smiles": "CC(C)=CC1C(C(=O)OCN2C(=O)C3=C(CCCC3)C2=O)C1(C)C", "note": "(stereo not drawn) [tetramethrin]", "values": [{"measurement": "effect on OATP2B1 activity", "setting": "OATP2B1", "value": "cis-stimulated"}, {"measurement": "effect on OCT1-mediated transport of dopamine", "setting": "OCT1 [1]", "value": "decreased it, but only when used at 100 or 300 μM"}, {"measurement": "effect on OAT1 activity", "setting": "OAT1", "value": "failed to alter"}, {"measurement": "reduction of OCT1-mediated DAPI accumulation", "setting": "OCT1 [2]", "value": 66.4, "unit": "%"}, {"measurement": "effect on MATE2-K activity", "setting": "MATE2-K", "value": "failed to alter"}, {"measurement": "cis-effect on TEA accumulation in HEK-OCT1 cells", "setting": "OCT1 [3]", "value": "markedly cis-inhibit"}]}]}
